Data taken from patent publication US9243009B2, “Phosphate ester compound of hydroxy acid substituted phenol ester, preparation method and medical use thereof” (West China Hospital, Sichuan University, priority 2010, dated 2016).

Conditions: 10 mg/ml solution mixed with mouse, rat or rabbit plasma, 37° C., 0 min to 4 h

Substance	decomposition in the plasma into the active compound propofol
propofol w-hydroxyvalerate phosphate disodium salt	rapidly decomposed
propofol w-hydroxybutyrate phosphate disodium salt	rapidly decomposed
